Assay results: patent US5821118A, “Genes for the subunits of human farnesyl-protein transferase” (Merck & Co., Inc., priority 1995, dated 1998)

What was measured:
Bovine brain FTase = molecular target: T1, Bovine brain FTase (Bos taurus, UniProt P29702+P49355); experiment: Assay of compounds for FPTase inhibitory activity, bovine brain FPTase; assay type: biochemical; conditions: Ras protein 3.5 μM, pH 7.5, 30° C, * = alternative substrates (CVIM, CVIL, FPP)
T1 construct: an assay employing bovine brain FPTase; from tissue; host or cells: bovine brain
Protocol: The purified, recombinantly expressed, mammalian FPTase is employed in an assay to determine the inhibitory activity against FPTase mediated farnesylation of Ras by various pharmaceutical compounds. […] The purified mammalian FPTase is then added to the assay mixture and the assay mixture is incubated for a period of time such as 10-30 minutes at 30° C. The assay mixture is then quenched and the Ras protein is separated from free FPP by techniques well known in the art. […] This value may be compared to the relative value of the amount of Ras farnesylated in the absence of the pharmaceutical agent and to the relative value of the amount of Ras farnesylated in the presence of other pharmaceutical agents.
[^3 H]Farnesyl diphosphate (FPP) (20 Ci/mmol) was purchased from New England Nuclear. In general, inhibitory activity assays were carried out at 30° C. A typical assay reaction contained (in a final volume of 50 μL): [^3 H]farnesyl diphosphate, Ras protein (3.5 μM), 50 mM HEPES, pH 7.5, 5 mM MgCl2, 1 mM dithiothreitol, and the compound to be assayed. […] Filters were washed four times with 2 mL aliquots of 100% ethanol, mixed with scintillation fluid (10 mL) and then counted in a Beckmann LS3801 scintillation counter.

human FPTase = molecular target: T2, human FPTase (Homo sapiens, UniProt P49354+P49356); experiment: Assay of compounds for FPTase inhibitory activity, once purified human FPTase; assay type: biochemical; conditions: Human FTase; Ras protein 3.5 μM, pH 7.5, 30° C; * = alternative substrates (CVIM, CVIL, FPP)
T2 construct: codons for Glutamic acid-Glutamic acid-Phenylalanine-stop were placed after the last codon for the β subunit; made in house; host or cells: E. coli DH5a

For “cysteinylvalinyl-isolleucinyl-methionine [CVIM]”, the IC50 (Bovine brain FTase) was 100 nM and the IC50 (human FPTase) was 100 nM.
